Experimental data taken from US20140303084.

System: conjugate A

Substance: thrombin
- cleavage of conjugate A (10 µM) by 1.4 nM thrombin, HPLC: the conjugate was fully cleaved after about 60 min of incubation
